Binding of CDR-mutated scFvs to a peptide of the spike HR2 region

Binding partner: SARS-CoV-2 spike HR2 peptide, sequence PDVDLGDISGINAS.

Ab-14 is the parent antibody, in scFv form: VH, then a (GGGGS)3 linker, then VL. The light chain is unchanged in all variants.
VH: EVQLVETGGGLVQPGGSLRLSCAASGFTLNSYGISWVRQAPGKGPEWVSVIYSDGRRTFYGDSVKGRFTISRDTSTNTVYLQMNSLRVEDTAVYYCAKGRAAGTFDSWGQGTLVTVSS
VL: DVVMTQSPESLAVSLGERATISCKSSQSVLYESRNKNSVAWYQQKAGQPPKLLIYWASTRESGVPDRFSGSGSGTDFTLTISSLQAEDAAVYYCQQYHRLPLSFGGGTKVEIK

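The starting antibody came from a phage panning campaign against this peptide. AAYL49 was designed without a model: most single CDR substitutions and a random sample of double and triple ones. The assay is AlphaSeq: two haploid yeast populations carry antibody and antigen on their surface. Pairs that bind mate more often; barcode pairs of the diploids are counted by sequencing. The ratio of observed to expected reads was calibrated, replicate by replicate, on BCL2-family standards whose Kd was known from biolayer interferometry. Each pool was mated in three replicate cultures.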

Changes read parent residue, position, new residue, counted from the first residue of the VH shown. All variants listed here change K65 of the VH, counted from its first residue. Values are apparent Kd, the geometric mean of the replicates that gave a signal; lower means stronger binding. A pair that was not seen in any replicate is written "not detected"; this usually means weak binding, but a binder can also be missed. Three control strains display no target. For library AAYL49, 15% of the pairings with them gave a signal, with a median of 11 µM and one signal in twenty below 680 nM, so weak values seen in few replicates may be background. For reference, the parent read 4.4 nM as the reference entry and 13 µM (one replicate of three) as a member of this library.

changes	apparent Kd	seen in
K65F/R100G	210 nM	3 of 3
T28K/S53K/K65G	not detected	0 of 3
I34S/K65M/T104Y	not detected	0 of 3
G33A/K65D/A101Y	50 µM	1 of 3
I34A/K65D	not detected	0 of 3
Y32K/T58D/K65D	6.2 µM	1 of 3
G33C/K65L	29 µM	1 of 3
K65H	890 nM	3 of 3
N30S/K65N/F105A	33 nM	3 of 3
G33E/K65S/S107G	340 µM	1 of 3
Y32M/K65R/D106Y	7.0 µM	3 of 3
F27W/K65P/G103C	23 µM	2 of 3
G26N/K65T/A101S	not detected	0 of 3
K65R/G99E	not detected	0 of 3
V50Q/I51P/K65S	not detected	0 of 3
R56N/D62H/K65R	170 nM	3 of 3
Y52Q/G55H/K65F	48 µM	2 of 3
T28R/K65I/R100N	17 nM	3 of 3
F27L/L29N/K65L	140 µM	1 of 3
I34P/K65R/G103S	12 µM	1 of 3
F59V/K65Y/T104F	590 nM	3 of 3
G33E/G55D/K65P	not detected	0 of 3
R56H/K65W/G99C	52 nM	3 of 3
L29H/K65R/R100V	not detected	0 of 3
G55Q/D62Y/K65H	not detected	0 of 3
G33S/T58R/K65Q	18 µM	1 of 3
S53V/K65A/G103W	1.1 µM	2 of 3
K65F/G99N/A102C	not detected	0 of 3
S31N/D54V/K65P	not detected	0 of 3
I34R/F59K/K65D	not detected	0 of 3
K65G	81 nM	3 of 3
G26C/N30C/K65C	not detected	0 of 3
L29A/G61D/K65I	not detected	0 of 3
I51P/K65L/R100T	not detected	0 of 3
D62F/K65M/T104R	not detected	0 of 3
V64S/K65W/S107D	25 µM	1 of 3
S31V/Y32W/K65L	not detected	0 of 3
L29F/S31R/K65H	not detected	0 of 3
N30P/Y60G/K65S	not detected	0 of 3
K65T	150 nM	3 of 3
R57G/K65P/D106L	7.2 µM	2 of 3
F27P/K65D/G103M	5.3 µM	2 of 3
N30M/K65N/A102Q	59 nM	3 of 3
G61D/K65S/G103H	110 nM	3 of 3
L29W/S31Y/K65N	29 µM	1 of 3
G33C/Y60K/K65F	not detected	0 of 3
K65R/G99Q	not detected	0 of 3
K65D/G103S	190 nM	3 of 3
V64Y/K65M/A102D	not detected	0 of 3
R57H/Y60P/K65H	not detected	0 of 3
K65D/G99E/S107Q	8.9 µM	1 of 3
S35E/K65W	not detected	0 of 3
I34D/Y52V/K65I	not detected	0 of 3

Top 4 of the variants detected in all replicates, tightest first:

{"changes": "T28R/K65I/R100N", "apparent Kd": "17 nM", "seen in": "3 of 3"}
{"changes": "N30S/K65N/F105A", "apparent Kd": "33 nM", "seen in": "3 of 3"}
{"changes": "R56H/K65W/G99C", "apparent Kd": "52 nM", "seen in": "3 of 3"}
{"changes": "N30M/K65N/A102Q", "apparent Kd": "59 nM", "seen in": "3 of 3"}

Data: MIT Lincoln Laboratory AlphaSeq set, Engelhart et al. 2022, doi:10.1038/s41597-022-01779-4, as distributed in FLAb.